# Experimental data reported in PMC11066047.
# Protein sequences, listed by entry. Tags and fused reporters are not part of them. Lines headed by an entry give the natural chain unless they say otherwise; changes in a name come on top.
# UniProt P08518, whole entry: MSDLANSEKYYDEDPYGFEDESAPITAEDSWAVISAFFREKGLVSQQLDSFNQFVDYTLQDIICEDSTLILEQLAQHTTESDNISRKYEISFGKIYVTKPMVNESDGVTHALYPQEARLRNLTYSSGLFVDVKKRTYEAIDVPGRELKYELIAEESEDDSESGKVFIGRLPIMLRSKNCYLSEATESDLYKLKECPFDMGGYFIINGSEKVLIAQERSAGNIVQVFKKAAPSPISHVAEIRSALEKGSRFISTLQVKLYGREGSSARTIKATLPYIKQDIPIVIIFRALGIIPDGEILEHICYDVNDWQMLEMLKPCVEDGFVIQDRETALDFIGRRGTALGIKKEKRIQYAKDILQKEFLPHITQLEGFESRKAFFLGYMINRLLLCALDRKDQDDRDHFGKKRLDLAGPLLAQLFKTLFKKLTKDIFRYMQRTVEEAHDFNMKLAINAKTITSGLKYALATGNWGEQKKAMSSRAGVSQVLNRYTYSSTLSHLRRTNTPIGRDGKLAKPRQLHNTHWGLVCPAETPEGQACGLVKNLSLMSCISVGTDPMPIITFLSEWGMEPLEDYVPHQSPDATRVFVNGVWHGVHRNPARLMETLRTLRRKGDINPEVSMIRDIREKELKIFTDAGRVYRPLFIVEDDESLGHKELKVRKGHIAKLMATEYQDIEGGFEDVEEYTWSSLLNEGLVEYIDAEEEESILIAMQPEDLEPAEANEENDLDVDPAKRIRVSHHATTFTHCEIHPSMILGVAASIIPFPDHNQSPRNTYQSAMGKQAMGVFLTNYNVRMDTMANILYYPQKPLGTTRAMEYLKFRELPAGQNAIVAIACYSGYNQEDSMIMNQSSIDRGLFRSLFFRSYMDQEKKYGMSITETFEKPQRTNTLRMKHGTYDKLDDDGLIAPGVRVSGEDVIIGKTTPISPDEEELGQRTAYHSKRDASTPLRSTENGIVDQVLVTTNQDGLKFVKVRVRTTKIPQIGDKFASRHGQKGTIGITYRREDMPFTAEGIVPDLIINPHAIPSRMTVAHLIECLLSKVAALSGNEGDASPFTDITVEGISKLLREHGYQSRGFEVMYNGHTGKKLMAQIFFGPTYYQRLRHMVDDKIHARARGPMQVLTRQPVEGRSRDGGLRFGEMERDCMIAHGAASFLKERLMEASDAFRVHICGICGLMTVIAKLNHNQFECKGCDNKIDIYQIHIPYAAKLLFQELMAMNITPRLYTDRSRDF
# UniProt P53129: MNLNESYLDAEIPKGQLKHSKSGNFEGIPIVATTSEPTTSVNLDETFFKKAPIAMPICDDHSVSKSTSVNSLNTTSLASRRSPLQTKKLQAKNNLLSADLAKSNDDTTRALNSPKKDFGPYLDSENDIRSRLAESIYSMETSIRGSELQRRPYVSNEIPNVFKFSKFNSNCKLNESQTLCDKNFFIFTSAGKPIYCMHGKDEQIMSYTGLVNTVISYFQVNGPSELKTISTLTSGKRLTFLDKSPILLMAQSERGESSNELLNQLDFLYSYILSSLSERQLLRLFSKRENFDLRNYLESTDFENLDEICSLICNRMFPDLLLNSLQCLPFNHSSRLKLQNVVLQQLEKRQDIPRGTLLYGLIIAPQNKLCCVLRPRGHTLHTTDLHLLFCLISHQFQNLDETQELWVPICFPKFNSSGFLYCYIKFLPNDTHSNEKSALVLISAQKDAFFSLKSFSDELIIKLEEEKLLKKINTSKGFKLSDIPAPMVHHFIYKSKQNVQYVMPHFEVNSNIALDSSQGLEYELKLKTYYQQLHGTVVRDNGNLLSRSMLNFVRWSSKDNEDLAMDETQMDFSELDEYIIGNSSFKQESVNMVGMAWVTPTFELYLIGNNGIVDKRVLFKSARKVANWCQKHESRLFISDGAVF
# UniProt Q03308: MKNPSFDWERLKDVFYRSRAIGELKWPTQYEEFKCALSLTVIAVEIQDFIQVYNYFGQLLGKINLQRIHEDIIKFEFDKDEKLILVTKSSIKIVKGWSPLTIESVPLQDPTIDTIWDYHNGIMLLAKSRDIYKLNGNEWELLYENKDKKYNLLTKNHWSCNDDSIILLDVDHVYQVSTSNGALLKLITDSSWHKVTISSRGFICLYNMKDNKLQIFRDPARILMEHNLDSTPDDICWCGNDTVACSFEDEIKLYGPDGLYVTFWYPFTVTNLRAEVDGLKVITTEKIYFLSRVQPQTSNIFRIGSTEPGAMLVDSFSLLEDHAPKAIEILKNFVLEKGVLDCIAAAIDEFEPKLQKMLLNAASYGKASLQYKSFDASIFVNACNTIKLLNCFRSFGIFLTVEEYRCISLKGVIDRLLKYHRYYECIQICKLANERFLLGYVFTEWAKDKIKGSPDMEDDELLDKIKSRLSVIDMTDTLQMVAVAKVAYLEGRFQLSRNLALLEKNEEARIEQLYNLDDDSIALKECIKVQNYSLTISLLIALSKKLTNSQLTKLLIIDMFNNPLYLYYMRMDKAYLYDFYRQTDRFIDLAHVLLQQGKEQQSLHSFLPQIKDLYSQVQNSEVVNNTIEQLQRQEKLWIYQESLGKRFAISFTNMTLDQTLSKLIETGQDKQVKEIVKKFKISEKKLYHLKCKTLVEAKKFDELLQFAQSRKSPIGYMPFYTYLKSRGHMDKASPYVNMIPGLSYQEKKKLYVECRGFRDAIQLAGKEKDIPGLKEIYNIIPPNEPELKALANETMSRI
# UniProt P38959: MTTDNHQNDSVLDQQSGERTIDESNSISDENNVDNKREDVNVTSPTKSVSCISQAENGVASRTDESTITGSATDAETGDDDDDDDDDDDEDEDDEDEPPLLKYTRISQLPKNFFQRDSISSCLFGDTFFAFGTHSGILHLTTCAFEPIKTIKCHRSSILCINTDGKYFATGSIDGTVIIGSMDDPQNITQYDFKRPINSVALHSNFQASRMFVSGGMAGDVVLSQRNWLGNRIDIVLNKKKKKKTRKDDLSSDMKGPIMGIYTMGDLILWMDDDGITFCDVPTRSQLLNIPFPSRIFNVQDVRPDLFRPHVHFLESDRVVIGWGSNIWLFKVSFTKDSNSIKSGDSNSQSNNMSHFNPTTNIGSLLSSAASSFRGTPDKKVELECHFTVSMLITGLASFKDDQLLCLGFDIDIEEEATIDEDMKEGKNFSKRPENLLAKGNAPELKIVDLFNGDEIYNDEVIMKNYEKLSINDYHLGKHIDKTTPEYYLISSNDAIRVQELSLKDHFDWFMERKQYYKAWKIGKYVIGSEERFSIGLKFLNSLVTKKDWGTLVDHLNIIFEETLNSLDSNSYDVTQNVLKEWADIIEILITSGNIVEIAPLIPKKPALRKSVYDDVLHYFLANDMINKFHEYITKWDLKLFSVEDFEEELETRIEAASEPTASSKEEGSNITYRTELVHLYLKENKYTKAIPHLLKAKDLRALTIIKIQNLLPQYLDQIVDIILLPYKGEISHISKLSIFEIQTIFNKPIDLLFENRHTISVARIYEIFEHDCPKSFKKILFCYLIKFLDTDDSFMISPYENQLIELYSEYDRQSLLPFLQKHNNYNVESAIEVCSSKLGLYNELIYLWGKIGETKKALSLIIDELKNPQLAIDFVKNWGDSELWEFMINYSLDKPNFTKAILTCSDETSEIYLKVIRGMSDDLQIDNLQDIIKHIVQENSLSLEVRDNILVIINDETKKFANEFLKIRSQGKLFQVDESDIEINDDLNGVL
# This is one part of the list.
# How the values were obtained:
# Assay in all cases: cross-link between two proteins; cross-linking mass spectrometry
# [1] = target: DNA-directed RNA polymerase II subunit RPB2 (UniProt P08518)
# [2] = target: Vacuolar fusion protein MON1 (UniProt P53129)
# [3] = target: Vacuolar protein sorting-associated protein 16 (UniProt Q03308)
# [4] = target: Vacuolar protein sorting-associated protein 41 (UniProt P38959)
substance,measurement,setting,value
"DNA-directed RNA polymerase II subunit RPB1, P04050",listed as a hit,[1],yes
"Vacuolar fusion protein CCZ1, P38273",listed as a hit,[2],yes
"Vacuolar protein sorting-associated protein 41, P38959",listed as a hit,[3],yes
"Vacuolar membrane protein PEP3, P27801",listed as a hit,[4],yes
